Measured values reported in PubChem BioAssay (NCATS).
Only a part is listed here, and it is no random draw. Inconclusive results are not listed. Calls of active or inactive are those of the source. The call rests on the fitted dose curve; in most records, active means well fitted cell-killing curve with a large enough effect; inconclusive means small, poorly fitted or top-dose-only effect, or effect the other way; inactive means flat fitted curve, though single readings scatter.

How the values were obtained:
Test in all cases: Primary qHTS to identify gynecologic anti-cancer compounds using libraries of approved drugs and bioactive compounds (AID 1345084); further: nearly all actives have a fitted effect of over 55% in size
C33A = conditions: Gynecologic cancer cell panel viability, ATPlite luminescence, 48 h; at 57.5 µM (top of the series)
In short: (§1)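 Cells, 1,000 per well, were allowed to settle for 16 h at 37 C before compound addition. Five concentrations were tested for 48 h, and viability was read by ATPlite luminescence after 15 min at room temperature.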

CAOV3 = conditions: Gynecologic cancer cell panel viability, ATPlite luminescence, 48 h; at 57.5 µM (top of the series)
In short: as §1

CASKI = conditions: Gynecologic cancer cell panel viability, ATPlite luminescence, 48 h; at 57.5 µM (top of the series)
In short: as §1

Es-2 = conditions: Gynecologic cancer cell panel viability, ATPlite luminescence, 48 h; at 57.5 µM (top of the series)
In short: as §1

HeLa = conditions: Gynecologic cancer cell panel viability, ATPlite luminescence, 48 h; at 57.5 µM (top of the series)
In short: as §1

Hek293T = conditions: Gynecologic cancer cell panel viability, ATPlite luminescence, 48 h, control line for the selectivity index; at 57.5 µM (top of the series)
In short: as §1

JEG-3 = conditions: Gynecologic cancer cell panel viability, ATPlite luminescence, 48 h; at 57.5 µM (top of the series)
In short: as §1

OV90 = conditions: Gynecologic cancer cell panel viability, ATPlite luminescence, 48 h; at 57.5 µM (top of the series)
In short: as §1

PA-1 = conditions: Gynecologic cancer cell panel viability, ATPlite luminescence, 48 h; at 57.5 µM (top of the series)
In short: as §1

SKOV3 = conditions: Gynecologic cancer cell panel viability, ATPlite luminescence, 48 h; at 57.5 µM (top of the series)
In short: as §1

Measured: activity change, negative = cytotoxicity
On the % scale 0 is the no-effect control and ±100 the full control effect.

CC(=O)N1CCc2ccc(N(C(=O)/C=C/c3cccc(C#N)c3)C3CCN(CCC4CCCC4)CC3)cc21
inactive: C33A 9.24% | CAOV3 = 26.2% | CASKI -1.69% | Es-2 = 0.939% | HeLa 13.9% | Hek293T 0.369% | JEG-3 = 0.172% | OV90 = 8.38% | PA-1 = 10.3% | SKOV3 = 0%

CCC(=O)N(c1ccccc1)C1CCNCC1
inactive: C33A 6.81% | CAOV3 = -0.265% | CASKI 13.3% | Es-2 = 24.7% | HeLa 7.18% | Hek293T -8.55% | JEG-3 = 12.7% | OV90 = -12.2% | PA-1 = -2.88% | SKOV3 = 1.22%

CCOC(=O)N1CCC(=O)CC1
inactive: C33A 16.4% | CAOV3 = 2.87% | CASKI 3.41% | Es-2 = -1.69% | HeLa 8.21% | Hek293T 3.9% | JEG-3 = -2.11% | OV90 = -0.241% | PA-1 = 4.91% | SKOV3 = 27%
